# What was measured:
# [1] = water, room temperature
# [2] = Stability testing of wound healing gel prototype formulations per Study #1062; assay type: physicochemical; conditions: HEC versus Pluronic gelling agent; six prototypes of Study #1062
# Experimental: As used herein, “analytical methods” includes the following techniques that are useful for determining the identity and quantity of the ACT peptide in a particular formulation: NMR, HPLC, Amino Acid Composition and Molecular Weight Determinations, and Specific Optical Rotation.
# The first study was conducted per protocol #1062. During this study, 6 prototype formulations were evaluated as outlined in Table 4. The purposes of the study were to select a proper pH range for the product and also to select a proper gelling agent. The API concentration used for this study was 0.072% which was the initial targeted product concentration. Phosphate buffers at pH 5, 6, and 7 and two gelling agents, Pluronic and Hydroxyethylcellulose (HEC) were evaluated. The quantity of API required for the formulations was calculated as follows: Batch size for each formulation=12×5 g=60 g or 70 g API quantity for 6 formulations=6×70×0.072%/82.4%=0.37 g API purity value=82.4%
# Five formulations, formulae 2414-10 to -14, were gelled with Pluronic 127, which was assumed to be the preferred gelling agent. Only one formulation, 2414-15, was gelled with HEC as a back-up. The available stability data indicated the following conclusions.
substance,measurement,setting,value
Biotin-Ahx-Arg-Gln-Pro-Lys-lle-Trp-Phe-Pro-Asn-Arg-Arg-Lys-Pro-Trp-Lys-Lys-Arg-Pro-Arg-Pro-Asp-Asp-Leu-Glu-lle-OH [Peptide 328967],Solubility,[1],Soluble in water at room temperature
same,Comparative stability of API / formulations (in words),[2],more stable in HEC gel than Pluronic gels

# Source: patent US12128086B2, “Formulations and methods of use for alpha connexin c-terminal (ACT) peptides” (XEQUEL BIO, INC., priority 2012, dated 2024)
